Laboratory results as given in patent US20160237059A1, “HETEROCYCLIC SUBSTITUTED TRIFLUOROMETHYL PYRIMIDINONES AND THEIR USE” (BAYER PHARMA AKTIENGESELLSCHAFT, priority 2013, published 2016).

Protein sequences, listed by entry. Tags and fused reporters are not part of them. Residues count along the entry.
UniProt P41597, 1-360 isoform 2: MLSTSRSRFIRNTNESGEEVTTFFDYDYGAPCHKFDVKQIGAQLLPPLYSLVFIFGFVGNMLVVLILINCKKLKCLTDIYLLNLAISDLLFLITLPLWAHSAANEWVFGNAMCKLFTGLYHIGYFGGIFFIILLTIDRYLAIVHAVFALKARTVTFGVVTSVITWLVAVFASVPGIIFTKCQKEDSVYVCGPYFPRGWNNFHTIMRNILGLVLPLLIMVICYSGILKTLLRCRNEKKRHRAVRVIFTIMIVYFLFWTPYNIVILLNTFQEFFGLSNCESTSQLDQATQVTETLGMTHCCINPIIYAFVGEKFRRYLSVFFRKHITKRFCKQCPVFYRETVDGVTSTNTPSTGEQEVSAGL
UniProt P51683, whole entry: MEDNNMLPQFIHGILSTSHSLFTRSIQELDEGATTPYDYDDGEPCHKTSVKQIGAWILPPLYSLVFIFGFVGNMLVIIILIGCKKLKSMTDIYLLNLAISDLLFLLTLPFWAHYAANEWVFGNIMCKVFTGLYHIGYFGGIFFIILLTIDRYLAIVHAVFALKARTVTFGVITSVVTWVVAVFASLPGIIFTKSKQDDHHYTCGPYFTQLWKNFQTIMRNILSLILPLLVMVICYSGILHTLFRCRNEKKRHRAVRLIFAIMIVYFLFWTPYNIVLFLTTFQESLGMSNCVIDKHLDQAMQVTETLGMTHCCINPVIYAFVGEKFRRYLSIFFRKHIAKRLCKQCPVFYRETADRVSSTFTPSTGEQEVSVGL

Columns and labels:
human CCR2 = human CCR2 (Homo sapiens, UniProt P41597); assay: Functional Ca2+ release test (B-1); settings: Chem-1 cell line transfected with human CCR2; 50% inhibition of the MCP-1 effect, MCP-1 at EC50 (about 5 nM); in some cases means of several determinations
Experimental: The antagonistic action of test substances on CCR2 was determined in a functional Ca^2+ release test. Binding of CCL2/MCP-1 to CCR2 leads to a change in the conformation of the receptor resulting in Gi/Gq protein activation and intracellular signal cascade. This involves, inter alia, an intracellular Ca^2+ release. The test cell used was a Chem-1 cell line transfected with human CCR2 (ChemiSCREEN™ CCR2B Calcium-Optimized FLIPR Cell Line, Merck Millipore).
The test substances were dissolved in dimethyl sulphoxide (DMSO) at a concentration of 10 mM and serially diluted with DMSO in steps of 1:3.16 for a 10-point dose/activity analysis. According to the desired test concentrations, the substances were pre-diluted in Tyrode with 2 mM CaCl2 and 0.05% BSA.
The cells, cultivated in DMEM high glucose [supplemented with 10% FCS, 1 mM pyruvate, 15 mM HEPES, 500 μg/ml geniticin and non-essential amino acids (NEAA)], were sown at 5000 cells/25 μl in 384 well, μCLEAR/black cell culture plates from Greiner (#781092) and incubated at 37° C. for 24 h. The sowing medium consisted of DMEM high glucose [supplemented with 5% FCS, 1 mM pyruvate, 15 mM HEPES, 50 U/ml penicillin, 50 μg/ml streptomycin and non-essential amino acids (NEAA)]. […] Ca^2+ release was monitored over a period of 120 s in 1 s increments in a proprietary fluorescence imaging reader. […]

murine CCR2 = murine CCR2 (Mus musculus, UniProt P51683); assay: Functional β-arrestin recruiting test with human MCP-1 (B-2a); settings: U2OS β-arrestin cell line transfected with murine CCR2; agonist human MCP-1 at EC50 (about 3 nM); in some cases means of several determinations
Experimental: The antagonistic action of test substances on CCR2 was determined in a β-arrestin test. The PathHunter β-arrestin GPCR test system (DiscoveRx Corporation, Ltd.) is a cell-based functional method for detecting binding of β-arrestin to an activated receptor. The molecular basis is a […] complementation measured by the enzymatic conversion of a chemiluminescent substrate. The test cell used was a U2OS β-arrestin cell line transfected with murine CCR2 (93-0543C3, DiscoveRx Corporation, Ltd.).
The test substances were dissolved in dimethyl sulphoxide (DMSO) at a concentration of 10 mM and serially diluted with DMSO in steps of 1:3.16 for a 10-point dose/activity analysis. […]
The cells, cultivated in MEM Eagle (supplemented with 10% FCS, 50 U/ml of penicillin, 50 μg/ml of streptomycin, 250 μg/ml of hygromycin and 500 μg/ml of geniticin), were sown at 2000 cells/25 μl in 384 well, μCLEAR/black cell culture plates from Greiner (#781092) and incubated at 37° C. for 24 h. […] After 90 min of incubation at 37° C., the solution was removed, and recruitment of β-arrestin to CCR2 was detected with the aid of the PathHunter detection reagent (93-001, DiscoveRx Corporation, Ltd.) according to the instructions of the manufacturer. Luminescence was measured after an incubation time of 60 min using a proprietary luminescence imaging measuring instrument. […]

| IC50 (human CCR2) [nM] | IC50 (murine CCR2) [nM] | Structure (SMILES) |
| --- | --- | --- |
| 160 | 2500 | CC1CCCN1Cc1nc(C(F)(F)F)c(Cc2ccc(Cl)c(Cl)c2)c(=O)[nH]1 (stereo not shown) |
| 18 | 1400 | O=C(O)C1CCN(c2nc(C(F)(F)F)c(Cc3ccc(Cl)c(Cl)c3)c(=O)[nH]2)CC1 |
